Target: Nicotinamide phosphoribosyltransferase (Homo sapiens, UniProt P43490)

Protein sequences, listed by entry. Tags and fused reporters are not part of them. Lines headed by an entry give the natural chain unless they say otherwise; changes in a name come on top.
UniProt P43490: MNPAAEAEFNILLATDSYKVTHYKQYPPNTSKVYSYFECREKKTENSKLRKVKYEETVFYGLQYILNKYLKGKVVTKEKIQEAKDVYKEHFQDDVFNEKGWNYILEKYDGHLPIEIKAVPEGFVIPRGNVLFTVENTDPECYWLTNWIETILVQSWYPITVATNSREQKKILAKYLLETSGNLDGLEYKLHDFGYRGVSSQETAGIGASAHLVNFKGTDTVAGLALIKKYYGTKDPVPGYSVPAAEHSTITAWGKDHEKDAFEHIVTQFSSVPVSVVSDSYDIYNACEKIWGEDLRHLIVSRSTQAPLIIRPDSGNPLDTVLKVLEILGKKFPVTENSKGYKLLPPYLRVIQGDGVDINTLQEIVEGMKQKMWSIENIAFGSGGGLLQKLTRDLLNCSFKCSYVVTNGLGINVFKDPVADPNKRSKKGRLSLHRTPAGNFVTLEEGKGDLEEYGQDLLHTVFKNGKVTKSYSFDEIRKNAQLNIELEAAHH

## CCOC(=O)c1ccc(NC(=O)NCc2ccncc2)cc1
  EC50: 3.3 µM

Reference: ChEMBL document CHEMBL4819093, “Discovery of 1-[2-(1-methyl-1H-pyrazol-5-yl)-[1,2,4]triazolo[1,5-a]pyridin-6-yl]-3-(pyridin-4-ylmethyl)urea as a potent NAMPT (nicotinamide phosphoribosyltransferase) activator with attenuated CYP inhibition” (Bioorg Med Chem Lett, 2021)
